For 22 compounds, inhibition results are on record in PubChem BioAssay AID743445 (Broad Institute, 2014).

By UniProt entry, the sequences of proteins in these tests, tags left out. Where a name states a change or a piece, a line headed by the entry shows the natural chain unless it says otherwise.
UniProt O96028: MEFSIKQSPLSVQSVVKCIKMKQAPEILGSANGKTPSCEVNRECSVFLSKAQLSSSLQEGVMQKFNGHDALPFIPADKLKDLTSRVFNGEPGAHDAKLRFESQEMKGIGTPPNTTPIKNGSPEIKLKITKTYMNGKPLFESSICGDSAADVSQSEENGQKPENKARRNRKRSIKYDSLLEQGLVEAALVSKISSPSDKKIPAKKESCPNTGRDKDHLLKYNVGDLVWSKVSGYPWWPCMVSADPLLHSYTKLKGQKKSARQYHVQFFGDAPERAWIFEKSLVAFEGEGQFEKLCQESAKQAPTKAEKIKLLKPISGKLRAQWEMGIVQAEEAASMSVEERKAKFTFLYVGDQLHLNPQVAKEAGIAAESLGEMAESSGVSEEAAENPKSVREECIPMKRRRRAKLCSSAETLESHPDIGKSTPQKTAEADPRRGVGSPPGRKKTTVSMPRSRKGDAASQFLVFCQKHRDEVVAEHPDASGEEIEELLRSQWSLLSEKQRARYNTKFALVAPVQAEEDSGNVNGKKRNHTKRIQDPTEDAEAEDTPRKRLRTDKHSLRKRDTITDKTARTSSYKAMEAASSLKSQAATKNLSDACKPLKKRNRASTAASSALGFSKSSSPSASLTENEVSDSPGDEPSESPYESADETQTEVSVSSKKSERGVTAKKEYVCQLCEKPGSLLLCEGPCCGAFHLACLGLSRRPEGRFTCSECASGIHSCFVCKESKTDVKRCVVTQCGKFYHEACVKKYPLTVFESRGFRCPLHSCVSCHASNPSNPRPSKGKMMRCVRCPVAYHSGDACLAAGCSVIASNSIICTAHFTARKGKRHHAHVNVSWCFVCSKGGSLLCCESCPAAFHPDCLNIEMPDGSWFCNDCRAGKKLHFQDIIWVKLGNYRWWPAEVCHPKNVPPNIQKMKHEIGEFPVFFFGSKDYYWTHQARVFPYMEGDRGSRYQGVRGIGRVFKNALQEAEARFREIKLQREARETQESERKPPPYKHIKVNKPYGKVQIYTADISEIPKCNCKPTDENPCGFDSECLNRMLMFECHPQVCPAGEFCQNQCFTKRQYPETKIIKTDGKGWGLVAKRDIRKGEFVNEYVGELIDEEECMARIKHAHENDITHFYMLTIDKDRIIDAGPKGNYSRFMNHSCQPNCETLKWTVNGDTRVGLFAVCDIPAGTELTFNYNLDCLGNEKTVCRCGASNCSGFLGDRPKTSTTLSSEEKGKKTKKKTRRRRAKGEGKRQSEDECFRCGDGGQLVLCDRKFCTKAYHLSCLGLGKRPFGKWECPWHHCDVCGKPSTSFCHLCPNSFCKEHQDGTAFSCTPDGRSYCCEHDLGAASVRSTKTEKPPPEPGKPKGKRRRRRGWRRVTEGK

Only a part is listed here, and it is no random draw. The source made the active and inactive calls. Rule as the data show it: active = inhibition above about 50%; inactive = the rest.

A word on the inhibition: it is the relative decrease from the control value, in per cent.

This assay concerns the target Histone-lysine N-methyltransferase NSD2 (Homo sapiens) (UniProt O96028). Nature of the assay: blockers of NSD2 lysine methylation activity – biochemical, AlphaScreen, single concentration, set 2, primary screen (AID 743445). As to conditions: NSD2 peptide methylation, 120 min, at 12.5 µM, hits give high values.
As for `O=P1(N(CCCl)CCCl)NCCC(C(F)(F)F)O1` (configuration not stated), the inhibition is inactive: 0.799%.

On to `Clc1n[nH]nc1-c1nn[nH][15n]1`, for which the inhibition is inactive: 2.44%.

As to `CCOP(=O)(Nc1ccc(C)cn1)OCC`, the inhibition was inactive: -4.46%.

For `O=P1(Nc2ccccn2)COc2ccccc2OC1`, the inhibition was inactive: -0.602%.

As for `CCC1=CC2Cc3nc4ccc(Cl)cc4c(N)c3C(C1)C2` (configuration not stated), the inhibition is inactive: 13.3%.

With `CCOP(=O)(NC(=NC(C)c1ccccc1)NC(C)c1ccccc1)OCC` (configuration not stated), the inhibition was inactive: -6.49%.

As for `COc1cc(C2NCCC3(OCCO3)C2(C)C)cc(OC)c1OC` (configuration not stated), the inhibition was inactive: 0.403%.

In the case of `CCOP(=O)(Nc1cccc2ccccc12)OCC`, the inhibition is inactive: -0.359%.

With `CCCOP(=S)(Nc1nc(N)cc(=O)[nH]1)OCCC`, the inhibition was inactive: 0.828%.

On to `Cc1ccc(NCCc2c([N+](=O)[O-])cc([N+](=O)[O-])cc2[N+](=O)[O-])cc1`, for which the inhibition was inactive: 0.657%.

With `Nc1cccc2c([As](=O)(O)O)cccc12`, the inhibition was inactive: 11.8%.

For `Cc1cccc(OCC(=O)OC2CN3CCC2CC3)c1` (configuration not stated), the inhibition was inactive: -1.69%.

Consider `O=[As](O)(O)c1cccnc1`, for which the inhibition was inactive: 3.05%.

For the compound `COc1cc(C(=O)NCC2(N3CCOCC3)CCCCC2)cc(Cl)c1OC(C)C`, the inhibition is inactive: -2.91%.

For the compound `CS(=O)(=O)c1ccc(Cl)c(NC(=O)COC(=O)C(O)(c2ccccc2)c2ccccc2)c1`, the inhibition was inactive: 3.73%.

Turning to `O=C(OC1CN2CCC1CC2)c1ccc(Cl)cc1` (configuration not stated), the inhibition was inactive: 29.2%.

For `O=[N+]([O-])c1ccc2c(c1)nnn2O`, the inhibition is inactive: -1.2%.

Take `N#CCCN(C(=O)COC(=O)C(O)(c1ccccc1)c1ccccc1)c1ccc(F)cc1`: the inhibition is inactive: 1.39%.

With `CCOP1(=S)c2c(C)nn(CCC#N)c2N=C(c2ccc(F)cc2)N1C` (configuration not stated), the inhibition is inactive: -0.552%.

`O=C(O)COc1ccc([As](=O)(O)O)cc1[N+](=O)[O-]`: the inhibition is inactive: -1.31%.

Consider `CCOP1(=S)c2c(C)nn(CCC#N)c2N=C(c2ccccc2F)N1C` (configuration not stated), for which the inhibition was inactive: 1.44%.

In the case of `O=P(Nc1nccs1)(Oc1ccccc1)Oc1ccccc1`, the inhibition was inactive: 3.24%.
